Here are results for 1 compound from ChEMBL document CHEMBL4385626, “SAR optimization studies on modified salicylamides as a potential treatment for acute myeloid leukemia through inhibition of the CREB pathway” (Bioorg Med Chem Lett, 2019).

The nature of this data set: Clearance in NSG mouse at 2 mg/kg, iv measured after 7 to 150 mins by LC/MS/MS analysis. The following applies: in vivo. The class given is ADME, organism-based. The essentials:
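Single IV dose of 2 mg/kg to NSG mice (NOD.Cg-Prkdc scid Il2rg tm1Wjl/SzJ), vehicle DMSO/Kolliphor EL/water (3/5/82). Compound levels measured in plasma at various times after injection. PK parameters derived from the plasma time-concentration profiles.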

Consider `O=C(Nc1ccc([N+](=O)[O-])cc1Cl)c1cc(Cl)ccc1O` [NICLOSAMIDE], for which the CL is 0.0037 mg/ng/mL/h.
